Measurements: US10800772B2 (Gilead Sciences, Inc., priority 2016, dated 2020)

assay: Hum MS stability (human microsomal stability half-life)

| SMILES | Hum MS stability t½ |
| --- | --- |
| Cc1cc2nc(-c3ccc4c(n3)c(C3CCN(C5CN(C(=O)OC(C)C)C5)CC3)nn4C)sc2c(-c2ccc(Cl)cc2)c1[C@H](OC(C)(C)C)C(=O)O [Compound 168, (S)-2-(tert-butoxy)-2-(7-(4-chloro-phenyl)-2-(3-(1-(1-(isopropoxy-carbonyl)azetidin-3-yl)piperidin-4-yl)-1-methyl-1H-pyrazolo[4,3-b]pyridin-5-yl)-5-methylbenzo[d]thiazol-6-yl) acetic acid] | 6.58 h |
| COCCN1CCC(c2nn(C)c3ccc(-c4nc5cc(C)c([C@H](OC(C)(C)C)C(=O)O)c(-c6ccc(Cl)cc6)c5s4)cc23)C1 (stereo partly drawn) [Compound 65, (2S)-2-(tert-butoxy)-2-(7-(4-chlorophenyl)-2-(3-(1-(2-methoxyethyl)pyrrolidin-3-yl)-1-methyl-1H-indazol-5-yl)-5-methylbenzo[d]thiazol-6-yl)acetic acid] | 6.58 h |
| Cc1cc2nc(-c3ccc4c(c3)c(N3CC[C@H](N(C)C)C3)nn4C)sc2c(-c2ccc(Cl)cc2)c1[C@H](OC(C)(C)C)C(=O)O [Compound 93, (S)-2-(tert-butoxy)-2-(7-(4-chlorophenyl)-2-(3-((S)-3-(dimethylamino)pyrrolidin-1-yl)-1-methyl-1H-indazol-5-yl)-5-methylbenzo[d]thiazol-6-yl)acetic acid] | 6.58 h |
| Cc1cc2nc(-c3ccc4c(c3)c(N3CCN(C)CC3=O)nn4C)sc2c(-c2ccc(Cl)cc2)c1[C@H](OC(C)(C)C)C(=O)O [Compound 87, (S)-2-(tert-butoxy)-2-(7-(4-chlorophenyl)-5-methyl-2-(1-methyl-3-(4-methyl-2-oxopiperazin-1-yl)-1H-indazol-5-yl)benzo[d]thiazol-6-yl)acetic acid] | 6.58 h |
| Cc1cc2nc(-c3ccc4c(c3)c(N3CCN5C(=O)COC[C@@H]5C3)nn4C)sc2c(-c2ccc(Cl)cc2)c1[C@H](OC(C)(C)C)C(=O)O [Compound 138, (S)-2-(tert-butoxy)-2-(7-(4-chloro-phenyl)-5-methyl-2-(1-methyl-3-((S)-4-oxohexa-hydropyrazino[2,1-c][1,4]oxazin-8 (1H)-yl)-1H-indazol-5-yl)benzo[d]thiazol-6-yl)acetic acid] | 6.58 h |
| Cc1cc2nc(-c3ccc4c(c3)c(N3CCCN(C)CC3)nn4C)sc2c(-c2ccc(Cl)cc2)c1[C@H](OC(C)(C)C)C(=O)O [Compound 132, (S)-2-(tert-butoxy)-2-(7-(4-chloro-phenyl)-5-methyl-2-(1-methyl-3-(4-methyl-1,4-diazepan-1-yl)-1H-indazol-5-yl)benzo[d]thiazol-6-yl)acetic acid] | 6.58 h |
| Cc1cc2nc(-c3ccc4c(c3)c(C3CN(C(C)C)C3)nn4C)sc2c(-c2ccc(Cl)cc2)c1[C@H](OC1CC1)C(=O)O [Compound 55, (S)-2-(7-(4-chlorophenyl)-2-(3-(1-isopropylazetidin-3-yl)-1-methyl-1H-indazol-5-yl)-5-methylbenzo[d]thiazol-6-yl)-2-cyclopropoxyacetic Acid] | 6.58 h |
| Cc1cc2nc(-c3ccc4c(c3)c(C3CCN(CC5CCO5)CC3)nn4C)sc2c(-c2ccc(Cl)cc2)c1[C@H](OC(C)(C)C)C(=O)O (stereo partly drawn) [Compound 6, (2S)-2-(tert-butoxy)-2-(7-(4-chlorophenyl)-5-methyl-2-(1-methyl-3-(1-(oxetan-2-ylmethyl)piperidin-4-yl)-1H-indazol-5-yl)benzo[d]thiazol-6-yl)acetic Acid] | 6.58 h |
| COCCN1CCN(c2nn(C)c3ccc(-c4nc5cc(C)c([C@H](OC(C)(C)C)C(=O)O)c(-c6ccc(Cl)cc6)c5s4)cc23)C1=O [Compound 79, (S)-2-(tert-butoxy)-2-(7-(4-chlorophenyl)-2-(3-(3-(2-methoxyethyl)-2-oxoimidazolidin-1-yl)-1-methyl-1H-indazol-5-yl)-5-methylbenzo[d]thiazol-6-yl)acetic acid] | 6.58 h |
| Cc1cc2nc(-c3ccc4c(n3)c(N3CCN(C)CC3)nn4C)sc2c(-c2ccc(Cl)cc2)c1[C@H](OC(C)(C)C)C(=O)O [Compound 196, (S)-2-(tert-butoxy)-2-(7-(4-chloro-phenyl)-5-methyl-2-(1-methyl-3-(4-methylpiperazin-1-yl)-1H-pyrazolo [4,3-b]pyridin-5-yl)benzo[d]thiazol-6-yl)acetic acid] | 6.58 h |
| COCCN1CC[C@H](c2nn(C)c3ccc(-c4nc5cc(C)c([C@H](OC(C)(C)C)C(=O)O)c(-c6ccc(Cl)cc6)c5s4)cc23)C1 (single isomer, unassigned) [Compound 68] | 6.58 h |
| Cc1cc2nc(-c3ccc4c(c3)c(N3CCN(C5(C)COC5)CC3)nn4C)sc2c(-c2ccc(Cl)cc2)c1[C@H](OC(C)(C)C)C(=O)O [Compound 207, (S)-2-(tert-butoxy)-2-(7-(4-chloro-phenyl)-5-methyl-2-(1-methyl-3-(4-(3-methyloxetan-3-yl)piperazin-1-yl)-1H-indazol-5-yl)benzo[d]thiazol-6-yl)acetic acid] | 6.58 h |
| COC(=O)N1CCC(c2nn(C)c3ccc(-c4nc5cc(C)c([C@H](OC(C)(C)C)C(=O)O)c(-c6ccc(Cl)cc6)c5s4)cc23)C1 (stereo partly drawn) [Compound 72, (2S)-2-(tert-butoxy)-2-(7-(4-chlorophenyl)-2-(3-(1-(methoxycarbonyl)pyrrolidin-3-yl)-1-methyl-1H-indazol-5-yl)-5-methylbenzo[d]thiazol-6-yl)acetic acid] | 6.58 h |
| Cc1cc2nc(-c3ccc4c(c3)c(C3CCN(C5CN(C)C5)CC3)nn4C)sc2c(-c2ccc(Cl)cc2)c1[C@H](OC(C)(C)C)C(=O)O [Compound 31, (S)-2-(tert-butoxy)-2-(7-(4-chlorophenyl)-5-methyl-2-(1-methyl-3-(1-(1-methylazetidin-3-yl)piperidin-4-yl)-1H-indazol-5-yl)benzo[d]thiazol-6-yl)acetic acid] | 6.58 h |
| Cc1cc2nc(-c3ccc4c(c3)c(N3CCN(C5COC5)CC3)nn4C)sc2c(-c2ccc(Cl)cc2)c1[C@H](OC(C)(C)C)C(=O)O [Compound 104, (S)-2-(tert-butoxy)-2-(7-(4-chlorophenyl)-5-methyl-2-(1-methyl-3-(4-(oxetan-3-yl)piperazin-1-yl)-1H-indazol-5-yl)benzo[d]thiazol-6-yl)acetic acid] | 6.58 h |
| COC(=O)N1CC(N2CCC(c3nn(C)c4ccc(-c5nc6cc(C)c([C@H](OC(C)(C)C)C(=O)O)c(-c7ccc(Cl)cc7)c6s5)nc34)CC2)C1 [Compound 167, (S)-2-(tert-butoxy)-2-(7-(4-chloro-phenyl)-2-(3-(1-(1-(methoxycarbonyl)azetidin-3-yl)piperidin-4-yl)-1-methyl-1H-pyrazolo[4,3-b]pyridin-5-yl)-5-methylbenzo[d]thiazol-6-yl) acetic acid] | 6.58 h |
| CCN1CCC(c2nn(C)c3ccc(-c4nc5cc(C)c([C@H](OC(C)(C)C)C(=O)O)c(-c6ccc(Cl)cc6)c5s4)cc23)C1 (stereo partly drawn) [Compound 64, (2S)-2-(tert-butoxy)-2-(7-(4-chlorophenyl)-2-(3-(1-ethylpyrrolidin-3-yl)-1-methyl-1H-indazol-5-yl)-5-methylbenzo[d]thiazol-6-yl)acetic acid] | 6.58 h |
| CCN1CC(c2nn(C)c3ccc(-c4nc5cc(C)c([C@H](OC(C)(C)C)C(=O)O)c(-c6ccc(Cl)cc6)c5s4)cc23)C1 [Compound 58, (S)-2-(tert-butoxy)-2-(7-(4-chlorophenyl)-2-(3-(1-ethylazetidin-3-yl)-1-methyl-1H-indazol-5-yl)-5-methylbenzo[d]thiazol-6-yl)acetic acid] | 6.58 h |
| CC(=O)N1CC[C@H](N2CCC(c3nn(C)c4ccc(-c5nc6cc(C)c([C@H](OC(C)(C)C)C(=O)O)c(-c7ccc(Cl)cc7)c6s5)cc34)CC2)C1 [Compound 11, (S)-2-(2-(3-(1-((S)-1-acetylpyrrolidin-3-yl)piperidin-4-yl)-1-methyl-1H-indazol-5-yl)-7-(4-chlorophenyl)-5-methylbenzo[d]thiazol-6-yl)-2-(tert-butoxy)acetic Acid] | 6.58 h |
| Cc1cc2nc(-c3ccc4c(c3)c(C3CN(C5COC5)C3)nn4C)sc2c(-c2ccc(Cl)cc2)c1[C@H](OC(C)(C)C)C(=O)O [Compound 59, (S)-2-(tert-butoxy)-2-(7-(4-chlorophenyl)-5-methyl-2-(1-methyl-3-(1-(oxetan-3-yl)azetidin-3-yl)-1H-indazol-5-yl)benzo[d]thiazol-6-yl)acetic acid] | 6.58 h |
| Cc1cc2nc(-c3ccc4c(c3)c(C3CCN(C5CCC5)C3)nn4C)sc2c(-c2ccc(Cl)cc2)c1[C@H](OC(C)(C)C)C(=O)O (stereo partly drawn) [Compound 71, (2S)-2-(tert-butoxy)-2-(7-(4-chlorophenyl)-2-(3-(1-cyclobutylpyrrolidine-3-yl)-1-methyl-1H-indazol-5-yl)-5-methylbenzo[d]thiazol-6-yl)acetic acid] | 6.58 h |
| Cc1cc2nc(-c3ccc4c(c3)c(C3CCN(C)C3)nn4C)sc2c(-c2ccc(Cl)cc2)c1[C@H](OC(C)(C)C)C(=O)O (stereo partly drawn) [Compound 63, (2S)-2-(tert-butoxy)-2-(7-(4-chlorophenyl)-5-methyl-2-(1-methyl-3-(1-methylpyrrolidin-3-yl)-1H-indazol-5-yl)benzo[d]thiazol-6-yl)acetic acid] | 6.58 h |
| CCN1CCC(c2nn(C)c3ccc(-c4nc5cc(C)c([C@H](OC(C)(C)C)C(=O)O)c(-c6ccc(Cl)cc6)c5s4)cc23)CC1 [Compound 126, (S)-2-(tert-butoxy)-2-(7-(4-chloro-phenyl)-2-(3-(1-ethylpiperidin-4-yl)-1-methyl-1H-indazol-5-yl)-5-methylbenzo[d]thiazol-6-yl) acetic acid] | 6.58 h |
| CC(=O)N1CC[C@@H](N2CCC(c3nn(C)c4ccc(-c5nc6cc(C)c([C@H](OC(C)(C)C)C(=O)O)c(-c7ccc(Cl)cc7)c6s5)cc34)CC2)C1 [Compound 12, (S)-2-(2-(3-(1-((R)-1-acetylpyrrolidin-3-yl)piperidin-4-yl)-1-methyl-1H-indazol-5-yl)-7-(4-chlorophenyl)-5-methylbenzo[d]thiazol-6-yl)-2-(tert-butoxy)acetic Acid] | 6.58 h |
